Experimental data from patent publication US20220249404A1 (Nanjing Ruiying Runze Biopharmaceutical Technology Co., Inc., priority 2019, published 2022).

System: C57BL/6 mice of hydroquinone model
Test: melanogenesis in C57BL/6 mice of hydroquinone model (back skin color, HE staining of hair follicles)
Details: hydroquinone model group compared with normal control group

Oc1ccc(O)cc1
melanin in hair follicle: decreased | skin color on the back: decreased significantly
